## Yeast mating assay B: variants of the scFv Ab-14

Source: Li et al. 2023 (doi:10.1038/s41467-023-39022-2), MIT Lincoln Laboratory and A-Alpha Bio; data file from the FLAb repository.

All variants were tested on one target, the spike HR2 peptide PDVDLGDISGINAS (SARS-CoV-2).

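The starting antibody came from a phage panning campaign against this peptide. These sequences belong to a second round, designed from the earlier measurements on random variants of the parent. Their group label is 14H_En_HC (En: ensemble of fine-tuned language models; HC: hill climbing; a sequence that several methods proposed may carry one label only). Affinity was read by AlphaSeq, a pooled yeast mating assay with surface-displayed partners. Binding brings cells together so that they mate, and sequencing counts the barcode pairs among the diploids. Scores were corrected for input abundance and mapped to Kd with protein pairs of known affinity run in the same pool. Each pool was mated in six replicate cultures.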

Each scFv is VH, a (GGGGS)3 linker, VL, as in the parent Ab-14, and differs from it in the CDRs of the heavy chain only.
VH: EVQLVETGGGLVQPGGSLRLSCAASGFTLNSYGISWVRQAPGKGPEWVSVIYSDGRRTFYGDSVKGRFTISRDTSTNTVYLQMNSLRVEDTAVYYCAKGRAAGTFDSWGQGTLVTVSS
VL: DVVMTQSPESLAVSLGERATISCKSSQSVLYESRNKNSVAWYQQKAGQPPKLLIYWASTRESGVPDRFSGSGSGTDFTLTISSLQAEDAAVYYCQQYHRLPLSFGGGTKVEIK

Variants are written as CDR1, CDR2 and CDR3 of the heavy chain (limits as in the source). Parent: GFTLNSYGIS, VIYSDGRRTFYGDSVK, GRAAGTFDS. Numbers give log10(Kd / nM), so 0 is 1 nM and 3 is 1 µM. Smaller is tighter. Averages over replicates are reported, and they cover detected replicates only. Where no diploid with the target was found in that replicate, the entry reads "n.d.": below detection, most likely a poor binder, though not proof of it. Three control strains display no target. For all heavy chain designs, 1% of the pairings with them gave a signal, with a median of 2.08 and one signal in twenty below 0.84, so weak values seen in few replicates may be background. Also given: how often the same scFv was detected with the empty control strains, with their mean in brackets.

CDR-H1,CDR-H2,CDR-H3,"log10 Kd, replicates",mean log10 Kd (nM),control signals
GFDLNEYGIS,VIYADGRRTFYIDSVK,GEIAGTFVS,-0.13 0.32 -0.29 -0.86 -0.08 -0.29,-0.22,0 of 18
GFNLNEYGIS,VIYADGRRSFYSDSVK,GEQAGTFDV,-0.45 -0.64 -0.60 -0.42 -0.63 -0.16,-0.48,0 of 18
GFSLDEYGIS,VIYADGRRTFYQDDVK,GNVAGTFDF,-0.79 -0.72 -1.19 -1.50 -0.79 -0.73,-0.95,0 of 18
GFDLNEYGIS,VIYADGKRTFYIDSVK,GTNAGTFDV,-0.61 -1.08 -0.55 -0.87 -1.15 -0.48,-0.79,1 of 18 (1.31)
GFDLNEYGIS,VIYADGKRTFYTDSVK,GEVAGTFDQ,-0.03 0.70 0.07 -0.05 -0.44 -0.25,0.00,0 of 18
GFDLNEYGIS,VIYADGVRTFYVDSVK,GENAGTFDS,-0.04 -0.28 -0.54 -0.35 -0.23 0.00,-0.24,0 of 18
GFDLNEYGIS,VIYADGRRTAYSDSVK,GQLAGTFDT,-0.49 -0.52 -0.70 -0.50 -0.74 -0.53,-0.58,0 of 18
GFDLNEYGIS,VIYADGKRTFYSDSVK,GNNGGTFDS,-0.11 -0.86 -0.54 -0.60 -0.86 -0.85,-0.64,0 of 18
GFDLNEYGIS,VIYADGQRTAYADSVK,GKAAGTFDS,-0.28 -0.39 -0.58 -0.77 -0.39 -0.64,-0.51,1 of 18 (1.61)
GFDLNEYGIS,VIYADGRRTFYADSVK,GTAGGTFDI,0.19 0.63 -0.11 -0.23 -0.05 -0.10,0.05,0 of 18
GFDLNEYGIS,VIYADGRRTFYADSVK,GTSAGTFDQ,-0.47 -0.68 -0.72 -0.46 -0.32 -0.56,-0.53,0 of 18
GFNLEDYGIS,VIYADGRRTFYVDSVK,GNVAGTFDV,0.51 0.13 -0.56 -0.22 -0.17 0.01,-0.05,0 of 18
GFDLNEYGIS,VIYADGRRTQYIDSVK,GENAGTFDL,-0.09 -0.19 -0.13 -0.08 0.08 -0.07,-0.08,0 of 18
GFNLEDYGIS,VIYADGRRTFYADSVK,GQVAGTFDV,-0.06 -0.56 -0.03 -0.59 -0.32 -0.29,-0.31,0 of 18
GFDLNEYGIS,VIYADGRRTFYSDSVK,GENGGTFDI,0.69 0.89 0.42 0.55 0.46 0.42,0.57,0 of 18
GFDLNEYGIS,VIYADGMRTAYIDSVK,GEIAGTFDS,-0.31 -0.46 -0.61 -0.46 -0.74 -0.40,-0.50,0 of 18
GFNLDEYGIS,VIYADGQRTFYADSVK,GQVAGTFDV,-0.75 -0.66 -0.86 -0.47 -0.85 -0.52,-0.69,0 of 18
GFSLDEYGIS,VIYADGRRTFYSDSVK,GSTAGTFDV,-0.09 -0.08 -0.37 -0.33 -0.03 -0.03,-0.16,0 of 18
GFDLNEYGIS,VIYADGRRTAYTDSVK,GHNAGTFDL,-0.17 -1.00 -0.78 -1.05 -0.83 -0.54,-0.73,1 of 18 (0.84)
GFNLDEYGIS,VIYADGQRTFYADSVK,GQVAGTFDS,-0.28 -0.70 -0.61 -0.90 -0.45 -0.25,-0.53,0 of 18
GFDLEEYGIS,VIYADGRRTFYADDVK,GENAGTFDI,-0.63 -0.49 -0.53 -0.61 -0.70 -0.55,-0.58,0 of 18
GFDLNEYGIS,VIYADGRRTFYQDSVK,GNVAGTFDV,-0.11 -0.52 -0.75 -0.58 -0.59 -0.51,-0.51,0 of 18
GFDLNEYGIS,VIYADGRRTFYSDSVK,GTVAGTFDS,-0.52 -0.48 -0.48 -0.42 -0.55 -0.33,-0.47,0 of 18
GFNLNEYGIS,VIYADGMRTFYTDSVK,GETAGTFDE,-0.15 0.04 -0.42 -0.55 -0.51 -0.06,-0.27,0 of 18
GFDLNEYGIS,VIYADGRRTAYADSVK,GNVAGTFFS,0.93 0.86 0.61 0.80 1.49 1.28,1.00,0 of 18
GFQLDEYGIS,VIYADGVRTFYADSVK,GEVAGTFDV,-0.50 -0.53 -0.98 -0.55 -0.60 -0.64,-0.63,0 of 18
GFNLDEYGIS,VIYADGKRTFYADSVK,GEVAGTFDV,0.96 1.13 0.22 2.69 0.62 0.85,1.08,0 of 18
GFDLNEYGIS,VIYADGRRTFYADSVK,GTNGGTFDI,0.36 0.01 0.38 0.28 0.22 0.47,0.29,0 of 18
GFDLNEYGIS,VIYADGQRTAYADSVK,GKNAGFFDS,n.d. n.d. n.d. n.d. n.d. 3.29,3.29,1 of 18 (1.75)
GFDLNEYGIS,VIYADGRRTFYADSVK,GNAAGTFLV,0.33 -0.22 0.36 -0.08 0.11 0.38,0.15,0 of 18
GFDLNEYGIS,VIYADGRRTFYSDSVK,GNNAGTFDQ,0.55 -0.13 n.d. 0.82 0.27 -0.20,0.26,0 of 18
GFDLNEYGIS,VIYADGRRTAYSDSVK,GENAGFFDF,1.75 1.16 0.98 1.71 1.54 2.63,1.63,0 of 18
GFDLDEYGIS,VIYADGKRTFYQDSVK,GNVAGTFDV,-0.32 -0.55 -0.51 -0.55 -0.54 -0.31,-0.46,0 of 18
GFNLDEYGIS,VIYADGRRTFYQDSVK,GEVAGTFDF,-0.46 -0.03 -0.09 -0.42 -0.37 -0.28,-0.27,1 of 18 (3.49)
GFDLNEYGIS,VIYADGRRTFYADSVK,GEIGGTFDS,-0.55 0.02 -0.28 -0.17 0.08 -0.06,-0.16,0 of 18
GFSLDEYGIS,VIYADGRRTFYADSVK,GNVAGTFDQ,0.07 0.07 -0.02 -0.12 -0.18 -0.11,-0.05,1 of 18 (2.72)
GFDLNEYGIS,VIYADGRRTFYSDSVK,GAVAGTFDV,-0.68 0.11 -0.79 0.29 -0.63 -0.20,-0.31,0 of 18
GFDLDEYGIS,VIYADGRRTFYADSVK,GENAGTFDL,1.54 1.66 0.79 0.48 0.46 1.39,1.05,0 of 18
GFDLNEYGIS,VIYADGRRTAYSDSVK,GGNAGFFDV,n.d. n.d. n.d. n.d. n.d. n.d.,n.d.,0 of 18
GFDLNEYGIS,VIYADGRRTFYADSVK,GEAGGTFDE,n.d. n.d. n.d. n.d. n.d. n.d.,n.d.,0 of 18
GFDLDEYGIS,VIYADGMRTFYADSVK,GNIAGTFLQ,-0.46 0.14 -0.62 0.09 -0.48 -0.65,-0.33,0 of 18
GFDLNEYGIS,VIYADGRRTFYVDSVK,GVNAGTFDI,-0.78 -1.04 -1.11 -1.23 -1.14 -1.06,-1.06,0 of 18
GFDLNEYGIS,VIYADGRRTAYDDSVK,GQVAGTFDK,n.d. -0.72 n.d. n.d. n.d. n.d.,-0.72,0 of 18
GFSLDEYGIS,VIYADGRRTFYQDNVK,GNVAGTFDV,-1.11 -1.46 -1.53 -1.13 -1.33 -1.34,-1.32,0 of 18

The range of this assay differs from that of the first round, and the authors advise against merging the two. The authors' rule: three or more of the six replicates give a measured affinity, fewer mean a poor binder.